Experimental data reported in ChEMBL document CHEMBL4270652, “Design, synthesis, and biological activity of substituted 2-amino-5-oxo-5H-chromeno[2,3-b]pyridine-3-carboxylic acid derivatives as inhibitors of the inflammatory kinases TBK1 and IKKε for the treatment of obesity” (Bioorg Med Chem, 2018).

details: buffer, pH 7.4

Row | SMILES | Therm_solubility [µM]
1 | C=C(C)c1cc2c(=O)c3cc(C(=O)O)c(N)nc3oc2cn1 | 372.6
2 | C=C(C)c1ccc2oc3nc(N)c(C(=O)O)cc3c(=O)c2c1 | 258.8
3 | CC(C)c1ccc2oc3nc(N)c(C(=O)O)cc3c(=O)c2c1 [AMLEXANOX] | 171.7
4 | Nc1nc2oc3ccc(N4CCOCC4)cc3c(=O)c2cc1-c1nnn[nH]1 | 915.7
